Data taken from PubChem BioAssay AID1531 (NMMLSC, 2009).
This is a selection; strong and weak results do not stand in their true shares. The source made the active and inactive calls. Cut-off read from the data, not from the text of the source: active = binding response below about 67% or above about 130%; inconclusive = no clear call, values can overlap the other calls; inactive = in between.

target: Mitogen-activated protein kinase kinase kinase 2 (Homo sapiens) (UniProt Q9Y2U5); experiment: wildtype MEKK2 PB1-MEK5 interaction, increase or decrease – biochemical, multiplex bead flow cytometry, Alexa488-MEK5, primary screen (AID 1531); conditions: Alexa488-MEK5 binding to MEKK2 WT, at 10 µM, actives lie on both sides

Compound	binding response (% of control)
CC(C)CC(=O)NC(Sc1ccc(Cl)cc1)C(Cl)(Cl)Cl (stereo not given)	inactive: 87%
Nc1cc(N)c2nonc2c1[N+](=O)[O-]	inactive: 108%
Cc1c2non([O-])c-2c(C)[n+](=O)[n+]1[O-]	inactive: 92%
O=C(NC(Sc1ccncn1)C(Cl)(Cl)Cl)c1ccccc1 (stereo not given)	inactive: 99%
Oc1ccccc1CNc1ccccn1	inactive: 99%
Cc1ccc(OP(=O)(Nc2nccs2)Oc2ccc(C)cc2)cc1	inactive: 95%
COc1ccccc1OP(=O)(Nc1ccc(C)cn1)Oc1ccccc1OC	inactive: 93%
Clc1ccc(Cl)c(NC2=NCC(CBr)S2)c1 (stereo not given)	inactive: 104%
CN1CCCC(OC(=O)C(c2ccccc2)c2ccccc2)C1 (stereo not given)	inactive: 88%
NC(=O)c1cc([N+](=O)[O-])cc([N+](=O)[O-])c1N	inactive: 86%
CC(=O)Nc1ccc(Oc2c([N+](=O)[O-])cc([N+](=O)[O-])cc2[N+](=O)[O-])cc1	inactive: 110%
CC(=O)Nc1ccc([As](=O)(O)O)c(O)c1	inactive: 92%
CC(=O)c1ccc(N2CC2c2ccncc2)cc1 (stereo not given)	inactive: 99%
C[C@@H]1C=CCP(=O)(Oc2ccccc2)O1 (stereo not given in full)	inactive: 106%
C[C@H]1OP(=O)(Oc2ccccc2)C[C@@H]2O[C@@H]21 (stereo not given in full)	inactive: 102%
CC(C)(C)C(=O)NC(Sc1ccccc1)C(Cl)(Cl)Cl (stereo not given)	inactive: 86%
CCOc1ccc(C2=NCC(CBr)S2)cc1 (stereo not given)	inactive: 107%
O=P1(Nc2nc3ccc(Cl)cc3s2)COc2ccccc2O1 (stereo not given)	inactive: 102%
CN(C)C(=O)Oc1noc2ccccc12	inactive: 96%
O=c1c2cc([N+](=O)[O-])ccc2[nH]c2c([N+](=O)[O-])cc([N+](=O)[O-])cc12	inactive: 81%
Cc1ccccc1OP(=O)(Nc1ccccn1)Oc1ccccc1C	inactive: 88%
Cc1ccc(OP(=O)(Nc2ccccn2)Oc2ccc(C)cc2)cc1	inactive: 86%
CC(=O)NC(SC(=S)N(CC(C)C)CC(C)C)C(Cl)(Cl)Cl (stereo not given)	inactive: 103%

Compound	binding response (% of control)
COC(=O)c1cc2c(s1)N=C(c1ccccc1)N(C)P2(=O)N1CCOCC1 (stereo not given)	inactive: 110%
CCC(=O)N1C2C3N(C(=O)CC)C1C1N(C(=O)CC)C(C(N1C(=O)CC)N3C(=O)CC)N2C(=O)CC	inactive: 107%
O=C(OC1CN2CCC1CC2)c1ccccc1 (stereo not given)	inactive: 100%
CCNC(=S)/N=C(\N)N[N+](=O)[O-]	inactive: 104%
O=C(NC1CCS(=O)(=O)C1)NP(=S)(Oc1ccccc1)Oc1ccccc1 (stereo not given)	inactive: 100%
CCOC(=O)NC(Sc1ccccc1)C(Cl)(Cl)Cl (stereo not given)	inactive: 101%
Cc1ccc(NP(=O)(Oc2cccc(C)c2)Oc2cccc(C)c2)nc1	inactive: 90%
c1ccc(-c2nn[nH]n2)c(-c2nn[nH]n2)c1	inactive: 82%
Nc1ccc([As](=O)(O)c2ccc([N+](=O)[O-])cc2)cc1	inactive: 101%
C(Cc1nn[nH]n1)Cc1nn[nH]n1	inactive: 102%
O=C(OC1CN2CCC1CC2)c1cccc(Cl)c1 (stereo not given)	inactive: 109%
O=[N+]([O-])c1ccc(O)c(/C=N/Nc2ccc([N+](=O)[O-])cc2[N+](=O)[O-])c1	inactive: 99%
O=[N+]([O-])c1ncn(CCn2cnc([N+](=O)[O-])n2)n1	inactive: 95%
CC(=O)NC(SC(=S)N(C)C)C(Cl)(Cl)Cl (stereo not given)	inactive: 95%
O=[As](O)(c1ccccc1)c1ccc(O)cc1	inactive: 95%
C[C@H]1OP(=O)(Oc2ccccc2)[C@H](O)[C@H](O)[C@H]1N=[N+]=[N-] (stereo not given in full)	inactive: 102%
O=P(Nc1nc2ccccc2s1)(c1ccccc1)c1ccccc1	inactive: 104%
O=P(Nc1ccccn1)(c1ccc(Br)cc1)c1ccc(Br)cc1	inactive: 99%
CN(C)C1(CNC(=O)c2ccc(Cl)c(S(N)(=O)=O)c2)CCCCC1	inactive: 105%
c1nnnn1CCn1cnnn1	inactive: 110%
CC(C)C(=O)NC(Sc1ccccc1)C(Cl)(Cl)Cl (stereo not given)	inactive: 107%
O=P(Nc1nccs1)(c1ccccc1)c1ccccc1	inactive: 103%
